Assay outcomes: PubChem, Broad Institute
ARNT-TACC3 inh: disruptors of human ARNT/TACC3 interaction; inhibition, % at 9.99 µM; 390,000 tested, 0.66% active; AlphaScreen His-ARNT PAS-B/GST-TACC3 binding, luminescence; TACC3 fragment carries E629A point mutation; AID 623870;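 active = mean inhibition of replicates at least 50% and at least half of replicates each reaching 50%; inconclusive = half or more replicates reach 50% but mean below 50%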
E-sel inducer: E-selectin induction on HUVECs | activation, % at 7.58 µM | P16581 | HUVEC E-selectin immunofluorescence imaging; normalized: neutral wells 0, TNF-alpha wells 100 | 260,000 tested, 0.37% active;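 active = mean E-selectin-positive cell signal at least 10% of the positive control, reached in at least 60% of replicates, without over 20% cell loss; inconclusive = no rule given, readout overlaps actives, possibly toxicity-flagged; inactive = the rest, including those meeting only one limit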
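assay system = HUVEC, human umbilical vein endothelial cells | input = 3,000 HUVEC seeded per well | medium = EGM-2 growth medium on 0.1% gelatin-coated wells | dosing = one compound dose added by pin transfer | signal = immunofluorescence imaging | read-out basis = % PE-positive cells | control set = TNF-alpha, DMSO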
UUG fidelity: alters start codon recognition fidelity in yeast | S. cerevisiae UUG-firefly luciferase reporter, luminescence/redox ratio | activity score, % at 18.7 µM | hit rate 0.13% among 350,000 | AID 602363;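 active means replicate mean at a twofold rise or more, about +100% in these data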;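 further: firefly luciferase made from a UUG start codon reports start codon fidelity; reporter light over untreated wells divided by growth signal over untreated wells; some hits fall short of that in this replicate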
S100A4 MyoIIA: blocks human S100A4 binding to myosin IIA peptide; P26447; S100A4/TAMRA-MyoIIA peptide fluorescence polarization; inhibition, % at 10.7 µM; 360,000 tested, 0.14% active; AID 652163;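 active = mean inhibition of at least 70% across replicates, with every replicate also reaching that level; inconclusive = mean inhibition reaches 70% but some replicates fall short; inactive = mean inhibition below 70%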
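Test system: S100A4 monomer protein. Medium: HEPES buffer with Ca2+, pH 7.2. Reagent: fluorescent myosin IIA peptide, 5 nM. Compound dosing: single-point compound testing. Timing: 5 min between mix addition and reading. Benchmarks: DMSO neutral and TFP positive wells.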
ERAP1 inh: ERAP1 (human) enzyme inhibition. recombinant ERAP1, Leu-AMC fluorescence, 60 min. inhibition, % at 10.7 µM. 340,000 tested, 0.15% active. AID 652197;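 active = mean replicate inhibition of at least 30%, or all replicates individually reaching that 30% level; inactive = mean below 30% and not every replicate reaching it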
MLL AF4-AF9 inh: inhibitors of human MLL-AF4/AF9 interaction. P42568. AlphaScreen, biotin-AF4 peptide binding to FLAG-AF9. inhibition, % at 10 µM. 350,000 tested, 0.47% active;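 active = every replicate reaching a set inhibition limit, whatever the replicate mean, cut at about 25% in these data; inconclusive = mean inhibition reaches that limit but some replicates miss it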
Numbers stand for hits; – = inactive; ? = inconclusive; · = no result given. In the library only some 1.3% were active in any assay of this set; here they are far more common.

SMILES	ARNT-TACC3 inh	E-sel inducer	UUG fidelity	S100A4 MyoIIA	ERAP1 inh	MLL AF4-AF9 inh
CN1[C@@H]2c3ccc(/C=C/c4ccccc4)c(=O)n3C[C@H]1[C@H](CO)[C@H]2C(=O)NC1CCCC1	·	–	·	–	–	–
CCN1CCN(c2ccc(S(=O)(=O)N3CCCCC3)cc2NC(=O)c2cccc(F)c2)CC1	–	–	·	–	–	–
CCN1CCN(c2ccc(S(=O)(=O)N3CCCCC3)cc2NC(=O)c2cccc(C)c2[N+](=O)[O-])CC1	–	·	·	–	–	–
CCN1CCN(c2ccc(S(=O)(=O)N3CCCCC3)cc2NC(=O)c2ccc([N+](=O)[O-])s2)CC1	–	–	–	–	–	29
CCN1CCN(c2ccc(S(=O)(=O)N3CCCCC3)cc2NC(=O)c2ccccc2)CC1	–	–	–	–	103	–
COCC(=O)Nc1ccc2c(c1)C(=O)N(C)C[C@H](OC)[C@H](C)CN(C(=O)CC1CC1)[C@@H](C)CO2	–	–	–	–	–	–
COc1ccccc1C#Cc1ccc([C@H]2[C@@H](C#N)N(C(=O)C3CC3)[C@H]2CO)cc1	–	–	·	–	–	–
O=C(C1CCCC1)N1[C@@H]2CN(S(=O)(=O)c3ccccc3)c3ccccc3[C@@H]2[C@@H]1CO	–	–	–	–	–	–
CN1/C(=C\C=C(C#N)C#N)C(C)(C)c2ccccc21	–	–	–	160	–	–
O=C(/C=C/c1cccs1)Nc1scc(-c2ccccc2)c1C(=O)O	–	–	·	–	–	27
O=C(/C=C/c1cccs1)Nc1nc(-c2ccccc2)cs1	–	·	–	·	·	·
C[C@]12CCC(=O)CC1CCC1C2CC[C@@]2(C)C1CC[C@@]21CCO1 (stereo partly drawn)	–	50	–	–	–	–
C[C@@H]1CN([C@@H](C)CO)C(=O)c2ccccc2-c2ccccc2CO[C@H]1CN(C)S(=O)(=O)c1ccc(C(F)(F)F)cc1	–	–	·	–	–	–
CCOC(=O)C(C)Oc1cccc2c(=O)n(CC(=O)Nc3ccc4c(c3)OCCO4)ccc12 (stereo not drawn)	–	–	–	–	–	45
CCOC(=O)C(C)Oc1cccc2c(=O)n(CC(=O)Nc3cccc(OC)c3)ccc12 (stereo not drawn)	–	–	–	–	–	–
CCOc1ccc(S(=O)(=O)N2CCC(C(=O)NCc3cccnc3)CC2)cc1	–	41	–	–	–	–
O=C1CNC(=S)N1CCCn1ccnc1	60	–	–	–	·	–
C[C@@H]1CN([C@@H](C)CO)C(=O)c2cc(NS(=O)(=O)c3cccs3)ccc2O[C@@H](C)CCCCO[C@@H]1CN(C)C(=O)Nc1ccccc1	–	·	–	–	–	–
C=CCn1c(CNc2ccccc2)nnc1SCC(=O)N/N=C/c1ccc(O)cc1O	58	·	–	·	·	·
C[C@@H]1CN([C@H](C)CO)C(=O)c2cc(NC(=O)Nc3ccc4c(c3)OCO4)ccc2O[C@H]1CN(C)S(=O)(=O)c1ccccc1	–	34	–	–	–	–
C[C@@H]1CN([C@@H](C)CO)C(=O)c2cc(NC(=O)Nc3ccc(F)cc3)ccc2O[C@@H]1CN(C)S(=O)(=O)c1cccs1	–	161	·	–	–	–
COc1ccc(NC(=O)Nc2ccc3c(c2)C(=O)N([C@H](C)CO)C[C@H](C)[C@H](CN(C)S(=O)(=O)c2ccc(F)cc2)O3)cc1	–	–	–	·	·	·
COc1ccc(NC(=O)Nc2ccc3c(c2)C(=O)N([C@H](C)CO)C[C@@H](C)[C@@H](CN(C)S(=O)(=O)c2ccc(F)cc2)O3)cc1	–	40	–	·	·	·
C[C@@H]1CN([C@@H](C)CO)C(=O)c2cccc(NC(=O)Nc3ccc4c(c3)OCO4)c2O[C@H]1CN(C)S(=O)(=O)c1ccc(F)cc1	–	55	–	–	–	–
O=C(C[C@H]1CC[C@H](NS(=O)(=O)c2cccc(F)c2)[C@@H](CO)O1)N1CCCCC1	–	–	–	–	–	–
SMILES	ARNT-TACC3 inh	E-sel inducer	UUG fidelity	S100A4 MyoIIA	ERAP1 inh	MLL AF4-AF9 inh
COc1ccc(NC(=O)N(C)C[C@H]2OCCCC[C@@H](C)Oc3ccc(NS(C)(=O)=O)cc3C(=O)N([C@@H](C)CO)C[C@H]2C)cc1	–	–	–	–	–	–
N#C[C@@H]1[C@@H](c2ccc(C#Cc3cccnc3)cc2)[C@@H](CO)N1C(=O)NC1CCCCC1	–	–	–	–	–	–
C[C@H]1CN([C@@H](C)CO)C(=O)c2cc(NC(=O)Nc3ccc4c(c3)OCO4)ccc2O[C@@H]1CN(C)S(=O)(=O)c1ccc(F)cc1	–	50	–	–	–	–
C[C@H](CO)N1C[C@H](C)[C@H](CN(C)S(=O)(=O)c2ccc(F)cc2)Oc2ccc(NC(=O)Nc3ccc4c(c3)OCO4)cc2C1=O	–	–	–	–	–	–
Cc1ccc(S(=O)(=O)N[C@@H]2CC[C@H](CC(=O)NC3CCCCC3)O[C@H]2CO)cc1	–	–	–	–	–	–
O=C(NC[C@@H]1CC[C@@H]2[C@@H](CN2S(=O)(=O)c2ccccc2)O1)NC1CCCCC1	·	·	·	–	–	–
O=C(Cc1ccc2c(c1)OCCO2)N1CCN(S(=O)(=O)c2ccccc2C(F)(F)F)CC1	–	·	–	–	–	–
O=C(Cc1ccc2c(c1)OCCO2)N1CCN(S(=O)(=O)c2cccc(Cl)c2Cl)CC1	–	·	–	–	–	30
C(=C\c1ccc(C2[C@@H]3CN(Cc4cccnc4)C[C@H]2N3)cc1)/c1ccccc1 (stereo partly drawn)	·	–	·	?	–	33
COc1ccccc1-c1c(C)nn2c(NCCN3CCCC3)cc(C)nc12	–	94	–	–	–	–
O=C(C1CCOCC1)N1[C@@H](CO)[C@@H](c2ccccc2)C12CN(Cc1cccnc1)C2	·	–	·	–	–	–
COC1=C(N)C(=O)c2nc(-c3nc(C(=O)O)c(C)c(-c4ccc(OC)c(OC)c4O)c3N)ccc2C1=O	65	·	–	–	·	·
CCNC(=O)[C@H]1[C@H](CO)[C@H]2Cn3c(ccc(-c4ccccc4)c3=O)[C@@H]1N2Cc1cccnc1	–	–	–	–	–	–
CC1CCCCN1CC(=O)Nc1ccc(N2CCCCCC2)cc1 (stereo not drawn)	–	·	·	–	–	49
O=C(CCl)Nc1ccc(N2CCCCCC2)cc1	–	·	–	–	–	51
COCCNC(=O)[C@@H]1[C@@H](CO)[C@@H]2Cn3c(ccc(-c4ccccc4F)c3=O)[C@H]1N2S(C)(=O)=O	–	–	·	–	–	–
O=C(C[C@H]1C[C@@H]2c3cc(NC(=O)CC4CC4)ccc3O[C@@H]2[C@H](CO)O1)NCc1ccccc1F	–	–	–	–	–	–
CCC(C)N1C(=O)S/C(=C/c2ccc(N3CCOCC3)cc2C)C1=O (stereo not drawn)	–	·	·	–	–	26
